Assays:
[1] = (+)METH brain concentrations in overdose and mAb pretreatment models; assay type: in vivo, rat; conditions: 1 mg/kg iv (+)METH dose without mAb
Protocol: The overdose model was designed to mimic a drug abuser taking a high iv (+)METH dose and treated with (+)METH mAb in the emergency room. In this model, rats received 1 mg/kg (+)METH (iv) followed 30 min later by an anti-(+)METH mAb dose. The mAb pretreatment model was designed to mimic an abuser in drug treatment administered an anti-(+)METH mAb medication at the start of behavioral modification therapy who relapses to (+)METH use. In this model, rats were pretreated with anti-(+)METH mAb6H4 and received a 1 mg/kg iv (+)METH dose the following day. This dose (without mAb) produced about 2.5 hrs of locomotor effects. Rats (3/time point) were sacrificed at varied times after (+)METH administration to determine (+)METH brain concentrations.

[2] = (+)-Methamphetamine and (+)-amphetamine pharmacokinetic studies in serum and brain with and without mAb6H4; conditions: for AUCbrain AUCserum ratio Treated / Molar Ratio of (+)-AMP to (+)-METH AUC Treated: mAb treated; for AUCbrain AUCserum ratio Control / T1/2λz Control / AUC38 min-[…] Control / Molar Ratio of (+)-AMP to (+)-METH AUC Control: without treatment; for T1/2λz Control: 1-mg/kg i.v. (+)-METH; for distribution half-life: two-compartment model

Substance: (+)-methamphetamine [(+)METH]
- duration of locomotor effects [1]: about 2.5 hrs
- AUCbrain AUCserum ratio Treated ([2]; Brain row): 0.02
- AUCbrain AUCserum ratio Control ([2]; Brain row): 9.6
- T1/2λz Control ([2]; Brain): 57 min
- Molar Ratio of (+)-AMP to (+)-METH AUC Treated ([2]; Brain): 1.26
- AUC38 min-[…] Control ([2]; Brain): 1182 ng·h/g
- Molar Ratio of (+)-AMP to (+)-METH AUC Control ([2]; Brain): 0.49
- AUCbrain AUCserum ratio Treated ([2]; Serum row): 1
- AUCbrain AUCserum ratio Control ([2]; Serum row): 1
- T1/2λz Control ([2]; Serum): 64.8 min
- AUC38 min-[…] Treated ([2]; Serum, 1-mol equivalent dose of mAb at 30 min): 12,266 ng · h/ml
- Molar Ratio of (+)-AMP to (+)-METH AUC Treated ([2]; Serum): 0.01
- AUC38 min-[…] Control ([2]; Serum): 123 ng·h/mL
- Molar Ratio of (+)-AMP to (+)-METH AUC Control ([2]; Serum): 0.49
- time of highest / apparent maximum concentrations in serum and brain ([2]; after 1.0-mg/kg i.v. (+)-methamphetamine): 1 min
- distribution half-life ([2]; brain): 26 min
- distribution half-life ([2]; serum): 1.7 min
